Measurements taken from US11118204B2, “Switchable ionic liquids for biomass pretreatment and enzymatic hydrolysis” (National Technology & Engineering Solutions of Sandia, LLC, priority 2014, dated 2021).
“And” between values parts separate entries of the source, which are not always exact repeats. Identical values can stand only once.

Tests used:
S. cerevisiae = settings: pH of ~5
[1] = ionic liquid solution
E. coli DH10B [2] = settings: pH of ~5
E. coli DH10B [3] = assay: E. coli growth in ionic liquids
E. coli BW25113 = assay: Isopentenol production by fermentation in presence of ionic liquid or hydrolysate

Substance | concentration up to which S. cerevisiae maintained its maximum growth rate (S. cerevisiae) | solution pH [1] | concentration at which E. coli growth was inhibited (E. coli DH10B [2]) | concentration up to which cultures reached the same maximum OD (E. coli DH10B [3]) | concentration up to which growth was observed (E. coli DH10B [3]) | concentration in fermentation media at which significant reduction of isopentenol yields occurred (E. coli BW25113)
Choline succinate [[Ch][Sc]] | up to 10% | 4-6 | above 3% | – | – | –
choline glutamate [[Ch][Glu]] | – | 5-7 and ~7 | – | up to 15% | up to 20% | ~12%
